{"sequences": {"note": "Chains of the proteins cited; added tags and fusions are not shown.", "UniProt P11712, whole entry, looked up": "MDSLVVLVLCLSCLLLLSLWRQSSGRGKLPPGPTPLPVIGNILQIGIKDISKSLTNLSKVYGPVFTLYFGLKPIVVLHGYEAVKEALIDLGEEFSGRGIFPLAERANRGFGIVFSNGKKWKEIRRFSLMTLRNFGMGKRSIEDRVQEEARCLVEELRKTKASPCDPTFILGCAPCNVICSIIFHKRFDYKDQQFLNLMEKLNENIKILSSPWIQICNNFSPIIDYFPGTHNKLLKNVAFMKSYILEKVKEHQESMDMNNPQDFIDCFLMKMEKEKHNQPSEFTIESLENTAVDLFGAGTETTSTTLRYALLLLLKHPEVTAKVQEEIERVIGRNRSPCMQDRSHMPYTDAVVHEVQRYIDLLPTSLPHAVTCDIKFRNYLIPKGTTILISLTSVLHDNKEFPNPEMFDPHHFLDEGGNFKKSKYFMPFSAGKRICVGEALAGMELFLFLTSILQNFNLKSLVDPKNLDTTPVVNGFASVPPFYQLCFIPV"}, "source": "PubChem BioAssay AID777", "about": "(Sanford-Burnham Center for Chemical Genomics, 2007)", "note": "Only a part is listed here, and it is no random draw. Calls of active or inactive are those of the source.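 The calls were made as follows: active = blocking of liver enzyme CYP2C9 beyond about 50% at 5 µM (limit read from the data); inactive = the rest.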"}
{"target": "Cytochrome P450 2C9 (Homo sapiens) (UniProt P11712)", "experiment": "blockers of cytochrome P450 2C9 activity – biochemical, luminescence, ADME assay, primary screen (AID 777)", "details": "CYP2C9 Supersomes, luciferin-H conversion, at 5 µM, stronger effect = higher value"}
{"compound": "O=P1(Nc2ncccn2)COc2ccccc2OC1", "inhibition": "inactive: -4.9%"}
{"compound": "Cc1ccc(OCC(=O)OC2CN3CCC2CC3)cc1", "note": "(stereo not given)", "inhibition": "inactive: -5.3%"}
{"compound": "O=P1(Nc2ccc(Br)cn2)COc2ccccc2OC1", "inhibition": "inactive: 40.8%"}
{"compound": "Cc1nn(-c2ccccc2)c2c1P(=O)(N1CCOCC1)N(C)C(c1ccccc1)=N2", "note": "(stereo not given)", "inhibition": "inactive: 5.2%"}
{"compound": "O=P1(Nc2ccccn2)COc2ccccc2OC1", "inhibition": "inactive: 11.7%"}
{"compound": "Clc1n[nH]nc1-c1nn[nH][15n]1", "inhibition": "inactive: 3.4%"}
{"compound": "Cc1cccc(OCC(=O)OC2CN3CCC2CC3)c1", "note": "(stereo not given)", "inhibition": "inactive: 6.1%"}
{"compound": "O=[N+]([O-])c1ccc2c(c1)nnn2O", "inhibition": "inactive: -22.5%"}
{"compound": "CCOP1(=S)c2c(C)nn(CCC#N)c2N=C(c2ccc(F)cc2)N1C", "note": "(stereo not given)", "inhibition": "active: 54.5%"}
{"compound": "O=P(Nc1nccs1)(c1ccccc1)c1nc2ccccc2s1", "note": "(stereo not given)", "inhibition": "active: 59.5%"}
{"compound": "CCOP1(=S)c2c(C)nn(CCC#N)c2N=C(c2ccccc2F)N1C", "note": "(stereo not given)", "inhibition": "active: 62.8%"}
{"compound": "CCN(CC)C(=S)SC(NC=O)C(Cl)(Cl)Cl", "note": "(stereo not given)", "inhibition": "inactive: -14.2%"}
{"compound": "O=C(OC1CN2CCC1CC2)C12CC3CC(CC(C3)C1)C2", "note": "(stereo not given)", "inhibition": "inactive: -22.2%"}
{"compound": "COP1(=S)c2c(C)nn(CCC#N)c2N=C(c2ccc(F)cc2)N1C", "note": "(stereo not given)", "inhibition": "inactive: 29.2%"}
{"compound": "O=C(COc1ccccc1)OC1CN2CCC1CC2", "note": "(stereo not given)", "inhibition": "inactive: -8%"}
{"compound": "CC1CCN(C(=O)Oc2c(Cl)cc(Cl)c3cccnc23)CC1", "inhibition": "inactive: -2.6%"}
{"compound": "O=[N+]([O-])c1cccc2n[nH]nc12", "inhibition": "inactive: -17.2%"}
{"compound": "CC(=O)N1C2C3N(C(C)=O)C1C1N(C(C)=O)C(C(N1C(C)=O)N3C(C)=O)N2C(C)=O", "inhibition": "inactive: 9.9%"}
{"compound": "CCc1nc2c(n1)c1c(non1O)c1c2no[n+]1[O-]", "inhibition": "inactive: 20.9%"}
{"compound": "CC(C)CC(=O)NC(Sc1ccc(Cl)cc1)C(Cl)(Cl)Cl", "note": "(stereo not given)", "inhibition": "active: 52.4%"}
{"compound": "Cc1c2non([O-])c-2c(C)[n+](=O)[n+]1[O-]", "inhibition": "inactive: 1.3%"}
{"compound": "Oc1ccccc1CNc1ccccn1", "inhibition": "inactive: -5.4%"}
{"compound": "CCOP(=O)(Nc1ccccc1)OCC", "inhibition": "inactive: -5.8%"}
{"compound": "COC(=O)c1cc2c(s1)N=C(c1ccccc1)N(C)P2(=O)N1CCOCC1", "note": "(stereo not given)", "inhibition": "inactive: 11.6%"}
{"compound": "CCC(=O)N1C2C3N(C(=O)CC)C1C1N(C(=O)CC)C(C(N1C(=O)CC)N3C(=O)CC)N2C(=O)CC", "inhibition": "inactive: 40.1%"}
{"compound": "CCOC(=O)NC(Sc1ccccc1)C(Cl)(Cl)Cl", "note": "(stereo not given)", "inhibition": "inactive: 32.4%"}
{"compound": "O=P1(Nc2nc3ccc(Cl)cc3s2)COc2ccccc2O1", "note": "(stereo not given)", "inhibition": "inactive: 38.9%"}
{"compound": "O=P(Nc1nccs1)(c1ccccc1)c1ccccc1", "inhibition": "inactive: 26.3%"}
{"compound": "c1nnnn1CCn1cnnn1", "inhibition": "inactive: -5.9%"}
{"compound": "O=C(OC1CN2CCC1CC2)c1cccc(Cl)c1", "note": "(stereo not given)", "inhibition": "inactive: -9.9%"}
